Like-named read-outs stand apart in the source and are kept apart here.
Tests used:
human serum albumin [1] = assay: Suppression of methylglyoxal-induced cross linking of human serum albumin, by fluorescent intensity; type: biochemical
human serum albumin [2] = type: biochemical
human serum albumin [3] = molecular target: human serum albumin (Homo sapiens, UniProt P02768)

Chains of the proteins cited; added tags and fusions are not shown. Residues count along the entry.
UniProt P02768, 25-609: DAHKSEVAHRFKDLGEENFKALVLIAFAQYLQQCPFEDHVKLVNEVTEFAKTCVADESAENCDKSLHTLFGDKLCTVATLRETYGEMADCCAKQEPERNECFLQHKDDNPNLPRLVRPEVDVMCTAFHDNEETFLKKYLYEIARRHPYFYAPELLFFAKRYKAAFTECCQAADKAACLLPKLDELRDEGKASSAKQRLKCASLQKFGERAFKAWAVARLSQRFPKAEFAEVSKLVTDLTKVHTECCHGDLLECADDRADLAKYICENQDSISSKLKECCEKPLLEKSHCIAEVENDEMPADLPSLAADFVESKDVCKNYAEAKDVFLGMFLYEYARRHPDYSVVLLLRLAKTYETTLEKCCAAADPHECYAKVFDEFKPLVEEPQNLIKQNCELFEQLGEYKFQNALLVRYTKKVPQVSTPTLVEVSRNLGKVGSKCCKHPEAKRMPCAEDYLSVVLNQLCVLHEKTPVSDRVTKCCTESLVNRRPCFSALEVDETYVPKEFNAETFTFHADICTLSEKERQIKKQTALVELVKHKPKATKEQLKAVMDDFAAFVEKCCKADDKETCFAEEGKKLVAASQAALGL

Compound	Increase in FI (%) (human serum albumin [1])	Increase in FI (%) (human serum albumin [2])	further results
2-mercapto-4-methyl-thiazole acetic acid	82%	–	–
OCCS [2-Mercaptoethanol]	–	42%	–
O.Oc1ccc(-c2nnns2)cc1 [4-(1,2,3,4-thiatriazo)phenol hydrate]	92%	–	–
O[C@H](CS)[C@@H](O)CS [Dithio erythrytol]	–	31%	–
N[C@@H](CCC(=O)N[C@@H](CS)C(=O)NCC(=O)O)C(=O)O [Glutathione]	–	25%	–
CC(=O)N[C@@H](CS)C(=O)O [N-Acetylcysteine, reference compound]	–	7%	–
O=C(C[n+]1ccsc1)c1ccccc1.[Br-] [N-Phenacyl thiazolium bromide, reference compound]	–	–	Decrease % (FI, 14th day vs 7th day) (human serum albumin [3]; albumin 50 mg/ml pre-incubated with 3-deoxyglucosone 50 mM/l 7 days, dialysed, additive 20 mM/l in ethanol : phosphate buffer 1:1, another 7 days 37° C.): −21%
O.O.O=c1c(O)c(-c2ccc(O)c(O)c2)oc2cc(O)cc(O)c12 [Quercetin dihydrate]	19%	–	–
CC(=O)SC1CC(=O)OC1=O (centres unmarked) [S-Acetylmercaptosuccinic anhydride]	–	50%	–
O=S([O-])O.[Na+] [Sodium bisulfite]	46%	–	–
O=S([O-])[O-].[Na+].[Na+] [Sodium sulfite]	61%	–	–
Nc1ccc(S(=O)(=O)Nc2nccs2)cc1 [reference compound]	–	–	Increase in FI (%) (human serum albumin [1]; methylglyoxal, human serum albumin, suppressor dissolved in dimethylsulfoxide : phosphate buffer solution 1:3, relative to Control 2 = 100): 45%
Catechin dihydrate	–	–	Decrease % (FI, 14th day vs 7th day) (human serum albumin [3]): −4%
Catechin hydrate	64%	–	–
